# Experimental data published in PubChem BioAssay AID2178 (The Scripps Research Institute Molecular Screening Center, 2009).
# By UniProt entry, the sequences of proteins in these tests, tags left out. Where a name states a change or a piece, a line headed by the entry shows the natural chain unless it says otherwise.
# UniProt P07711: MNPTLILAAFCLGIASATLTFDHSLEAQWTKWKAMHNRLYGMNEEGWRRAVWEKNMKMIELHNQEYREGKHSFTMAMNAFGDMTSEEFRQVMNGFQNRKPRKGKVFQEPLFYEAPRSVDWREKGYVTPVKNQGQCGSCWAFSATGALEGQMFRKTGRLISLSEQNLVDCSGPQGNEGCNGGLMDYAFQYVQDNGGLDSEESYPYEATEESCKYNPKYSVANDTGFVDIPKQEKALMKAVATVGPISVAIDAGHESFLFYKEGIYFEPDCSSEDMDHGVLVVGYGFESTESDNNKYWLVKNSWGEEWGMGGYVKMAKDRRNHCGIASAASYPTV
# The list shows a part of the results, in another mix than the full data. Activity calls are given as the source filed them.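 The calls were made as follows: active = average inhibition across replicates above the hit cutoff set in the earlier primary screen; inactive = the rest.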
# Biological target: Procathepsin L (Homo sapiens) (UniProt P07711)
# Assay: CTSL1 protease inhibition confirmation – biochemical, QFRET, triplicate, counter-screen for PFM18AAP inhibitor project (AID 2178);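 also: 0% = median of test compound wells and 100% = Z-Phe-Ala-diazomethylketone 1 µM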
# Details: purified cathepsin L1, Z-Leu-Arg-MCA fluorescence; at 5.96 µM; hits give high values
# Method in brief: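 Test system: purified recombinant cathepsin L1 enzyme; measure: percent inhibition from fluorescence change; benchmarks: Z-Phe-Ala-diazomethylketone control wells; also added: Z-Leu-Arg-MCA fluorogenic substrate; incubation: 30 min compound preincubation, then 90 min with substrate, 25 °C; repeats: triplicate; measured by: fluorescence of released MCA at 0 and 90 min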
row,SMILES,inhibition
1,CC(C)=N/N=C(\N)N[N+](=O)[O-],inactive: -0.17%
